Reference: patent US20240041827A1, “COMPOSITIONS FOR THE TREATMENT OF FAT RELATED CONDITIONS AND DISORDERS” (priority 2020, published 2024)

Test system: human visceral preadipocytes
Conditions: read-out: cytotoxic IC50; each compound alone
Experimental: Human visceral preadipocytes were seeded in 96-well white clear bottom plates at 10,000 cells per well in 100 μl pre-adipocyte medium and incubated overnight at 37° C. 5% CO2. On the following day, adipogenic differentiation was induced by addition of 100 μl/well differentiation medium and incubation continued for 5 days. Adipogenic differentiation was verified by microscopic evaluation, addition of adipored reagents and fluorescent measurement at Ex485 nm/Em572 nm. […] Staurosporine (1 μM) and 0.2% DMSO were used as controls. Plates were incubated at 37° C. 5% CO2 for 2, 6 and 24 hours. Following incubation, cytotoxicity was measured using Cell Titer Glo 2.0 (Promega).
Test Item RZL-12 (1-300 μM) was prepared on the day of the testing as 150 mM stock solutions in DMSO. […]
Human visceral pre-adipocytes (HPrAD-vis): HPrAD-vis cells (Lonza cat #PT-5005) were thawed at 37° C. and transferred into 50 ml tubes containing pre-adipocytes PGM-2 growth medium (PBM-2, 10% FBS, 1-glutamine, GA-1000). […] After resuspension, cells were counted and seeded in T-75 and T25 flasks at a density of 9,000 cells/cm^2 ([…], 225,000 cells/T25 flask). […]
Cells were sub-cultured only once, as soon as they reached 70% confluence. […] Cells were then counted using a haemacytometer slide after being diluted 1:2 in trypan blue (SIGMA). […]

Collagenase
IC50: 300 nM
